Reference: US4454158A, “Allyl amine MAO inhibitors” (Merrell Toraude et Compagnie, priority 1981, dated 1984)
pIC50: −log10 of the molar value.

Legend:
MAO-A and MAO-B = conditions: literature, cited from earlier work; for dose-dependence of MAO selectivity (in words): lower vs higher dosages
MAO-B versus MAO-A = assay: Selectivity of MAO inhibitors - In vitro (14C 5-hydroxytryptamine for MAO-A, 14C phenethylamine for MAO-B); type: biochemical; conditions: rat brain mitochondria
Experimental: Mitochondria are prepared from rat brain by homogenation in phosphate buffer (0.1 M, pH 7.2) followed by differential centrifugation. The mitochondria are suspended in the same buffer, the test compound is added at the desired concentration, and the system is incubated. […] Christmas, et al, supra).
Selectivity is expressed as the ratio of the inhibitory activity against MAO-B versus the inhibitory activity against MAO-A.

MAO [1] = assay: Inhibition of MAO - In vitro (14C p-tyramine substrate, partially purified rat brain mitochondria); type: biochemical; conditions: tested as hydrochloride salt, read-out: IC50 (MAO inhibitory activity - In vitro)
Excerpt: (A) The ability of a compound of Formula I or II to inhibit MAO can be determined in vitro by the method of A. Christmas et al, Br. J. Pharmacol. 45, 490 (1972) in partially purified mitochondria from rat brain using ^14 C p-tyramine as the substrate.

MAO [2] = assay: Inhibition of MAO - Ex vivo, rat (14C p-tyramine substrate); type: in vivo; conditions: 18 hr
Experimental: The ability of a compound of Formula I or II to inhibit MAO can be determined ex vivo by the following procedure:
The test compound is administered intraperitoneally (ip), intravenously (iv), or orally (po) to rats or mice and the animals are killed at various times after treatment. […] MAO activity is determined in the homogenates using ^14 C p-tyramine, as the substrate. […] Selectivity can be determined by repeating the above-described test using either ^14 C 5-hydroxytryptamine (for MAO-A) or ^14 C phenethylamine (for MAO-B) as the substrate for determining the % inhibition

| SMILES | preferential inhibition of MAO-A or MAO-B (in words) (MAO-A and MAO-B) | dose-dependence of MAO selectivity (in words) (MAO-A and MAO-B) | Selectivity (ratio of inhibitory activity against MAO-B versus MAO-A) (MAO-B versus MAO-A) | pIC50 (MAO [1]) | % Inhibition of MAO - Brain (MAO [2]; 0.5 mg/kg po) [%] | % Inhibition of MAO - Brain (MAO [2]; 5.0 mg/kg po) [%] | % Inhibition of MAO - Brain (MAO [2]; 10.0 mg/kg po) [%] |
| --- | --- | --- | --- | --- | --- | --- | --- |
| C#CCN(C)CCCOc1ccc(Cl)cc1Cl [clorgyline, reference compound] | MAO-A is preferentially inhibited | selective inhibitors at lower dosages, but are not selective inhibitors at higher dosages | 0.001 |  |  |  |  |
| C#CCN(C)[C@H](C)Cc1ccccc1 [L-deprenyl, reference compound] | MAO-B is preferentially inhibited | selective inhibitors at lower dosages, but are not selective inhibitors at higher dosages | 100 | 7.00 | 16 | 39 | 88 |
